# Measured values as given in PubChem BioAssay AID602250 (The Scripps Research Institute Molecular Screening Center, 2012).
# Values joined by “and” are separate entries in the source; they are usually repeats but may differ in a detail not shown here. Identical values can stand only once. Only a part is listed here, and it is no random draw. Active and inactive are the calls of the source.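 Rule for the calls: active = inhibition above a per-plate cutoff, the plate's mean sample inhibition plus 3 SD (cut at about 24% in these data); inactive = the rest.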
# Assay: calcium signal blockers in parental CHO-K1 cells – cell-based, Fluo-8 calcium fluorescence, full deck, 1536-well, counter-screen for M1 antagonist project, primary screen (AID 602250);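 note: 0% = DMSO plus EC80 ATP and 100% = DMSO alone without ATP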
# Conditions: ATP-induced calcium, Fluo-8 fluorescence, at 3 µM, stronger effect = higher value
row,SMILES,inhibition
1,Nc1ccc(CCCCOc2ccccc2)cc1,inactive: -7.32%
2,COc1ccc(C[C@H](C)NC[C@@H](O)c2ccc(O)c(NC=O)c2)cc1,inactive: -2.84%
3,c1nnnn1CCn1cnnn1,inactive: -6.64%
4,CC(C)C(=O)NC(Sc1ccccc1)C(Cl)(Cl)Cl (centres undefined),inactive: -6.32%
5,O=P(Nc1nccs1)(c1ccccc1)c1ccccc1,inactive: -12.2%
6,CC(C)/C=N\N=C(\N)N[N+](=O)[O-],inactive: -13%
7,CN(C(=O)Cc1ccc(Cl)c(Cl)c1)[C@@H]1CCCC[C@H]1N1CCCC1,inactive: 13.6%
8,CC1(CBr)Cn2c(nc3ccccc3c2=O)S1 (centres undefined),inactive: 17.6%
9,COc1ccccc1CNC(=O)COC(=O)C(O)(c1ccccc1)c1ccccc1,inactive: -3.48%
10,CC(C)(C)C(=O)NC(Sc1ncccn1)C(Cl)(Cl)Cl (centres undefined),inactive: -2.82%
11,O=P1(N(CCCl)CCCl)NCCC(C(F)(F)F)O1 (centres undefined),inactive: -3.03%
12,Clc1n[nH]nc1-c1nn[nH][15n]1,inactive: 17.3%
13,CCOP(=O)(NC(=NC(C)c1ccccc1)NC(C)c1ccccc1)OCC (centres undefined),inactive: 9.94%
14,O=P1(Nc2ccccn2)COc2ccccc2OC1,inactive: -5.86%
15,CCC1=CC2Cc3nc4ccc(Cl)cc4c(N)c3C(C1)C2 (centres undefined),inactive: -13.2%
16,CCOP(=O)(Nc1ccc(C)cn1)OCC,inactive: -7.55%
17,CN(CCCl)Cc1cc(Cl)c(NC2=NCCN2)c(Cl)c1,inactive: -7.75%
18,Nc1cccc([As](=O)(O)c2ccccc2)c1,inactive: -6.61%
19,Cc1ccc(OCC(=O)OC2CN3CCC2CC3)cc1 (centres undefined),inactive: -15.9%
20,O=[As](O)(c1cccs1)c1cccs1,inactive: 1.79%
21,O=P1(Nc2ccc(Br)cn2)COc2ccccc2OC1,inactive: -1.93%
22,NS(=O)(=O)c1cccc(NC(=O)COC(=O)C(O)(c2ccccc2)c2ccccc2)c1,inactive: -5.39%
23,Cc1ccc(S(=O)(=O)N(CCCN)CCCc2c(C)nc(N)[nH]c2=O)cc1,inactive: 0.92%
24,O=P1(Nc2ncccn2)COc2ccccc2OC1,inactive: -15.8%

row,SMILES,inhibition
1,CCCC1OP(=O)(Nc2ccccc2)OCC1CC (centres undefined),inactive: -17.2%
2,O=C(/C=C/c1ccccc1)OC1CN2CCC1CC2 (centres undefined),inactive: -12.1%
3,CC1CCC(C(C)C)C(OP(=O)(Nc2ccccn2)c2ccccc2)C1 (centres undefined),inactive: 5.97%
4,Cc1ccc(C(=O)OC2CN3CCC2CC3)cc1 (centres undefined),inactive: -12.6%
5,Cc1nn(-c2ccccc2)c2c1P(=O)(N1CCOCC1)N(C)C(c1ccccc1)=N2 (centres undefined),inactive: 4.38%
6,CN(C(=O)Cc1ccccc1)[C@@H]1CC[C@]2(CCCO2)C[C@H]1N1CCCC1,inactive: -9.03%
7,CCOP1(=S)c2c(C)nn(CCC#N)c2N=C(c2ccc(F)cc2)N1C (centres undefined),inactive: -12%
8,N#CCCN(C(=O)COC(=O)C(O)(c1ccccc1)c1ccccc1)c1ccc(F)cc1,inactive: -1.73%
9,CN(C(=O)Cc1ccc(Cl)c(Cl)c1)[C@H]1CC[C@@]2(CCCO2)C[C@@H]1N1CCCC1,inactive: -8.38%
10,O=[N+]([O-])c1ccc2c(c1)nnn2O,inactive: -14.8%
11,CN(C)C(=O)c1cc([N+](=O)[O-])cc2c1-c1c(cc([N+](=O)[O-])cc1[N+](=O)[O-])C2=O,inactive: 10.9%
12,NC(=O)Nc1ccc([As](=O)(O)O)cc1,inactive: -15.4%
13,COc1ccc(CC(C)NCC(O)c2ccc(O)c(NC=O)c2)cc1 (centres undefined),inactive: -2.05% and inactive: 6.3%
14,Nc1ccccc1[As](=O)(O)c1ccccc1,inactive: -7.76%
15,O=C(O)COc1ccc([As](=O)(O)O)cc1[N+](=O)[O-],inactive: 7.17%
16,O=P(Nc1nccs1)(Oc1ccccc1)Oc1ccccc1,inactive: 2.93%
17,O=P(Nc1nccs1)(c1ccccc1)c1nc2ccccc2s1 (centres undefined),inactive: -6.88%
18,CCOP1(=S)c2c(C)nn(CCC#N)c2N=C(c2ccccc2F)N1C (centres undefined),inactive: -9.71%
19,CS(=O)(=O)c1cc([N+](=O)[O-])c2no[n+]([O-])c2c1,inactive: -5.21%
20,CCOP(=O)(Nc1cccc2ccccc12)OCC,inactive: -10.8%
21,COc1cc(C2NCCC3(OCCO3)C2(C)C)cc(OC)c1OC (centres undefined),inactive: -3.12%
22,Cc1ccc(NCCc2c([N+](=O)[O-])cc([N+](=O)[O-])cc2[N+](=O)[O-])cc1,inactive: -8.13%
23,Nc1cccc2c([As](=O)(O)O)cccc12,inactive: -7.91%
24,C[C@H]1C(=O)O[C@@H]2CCN3CC=C(COC(=O)[C@](C)(O)[C@]1(C)O)[C@H]23,inactive: -0.43%

row,SMILES,inhibition
1,CCCOP(=S)(Nc1nc(N)cc(=O)[nH]1)OCCC,inactive: -11.9%
2,Cc1cccc(OCC(=O)OC2CN3CCC2CC3)c1 (centres undefined),inactive: -16%
3,O=[As](O)(c1cccc(O)c1)c1cccc(O)c1,inactive: -5.08%
4,O=C(OC1CN2CCC1CC2)c1ccc(Cl)cc1 (centres undefined),inactive: -2.85%
5,CS(=O)(=O)c1ccc(Cl)c(NC(=O)COC(=O)C(O)(c2ccccc2)c2ccccc2)c1,inactive: 2.08%
6,O=[As](O)(O)c1cccnc1,inactive: -11.2%
7,O=[N+]([O-])c1cc(Oc2ccc([N+](=O)[O-])cc2C(F)(F)F)cc([N+](=O)[O-])c1,inactive: -3.72%
8,COc1ccc(N/C(=N/P(=O)(N2CCOCC2)N2CCOCC2)N2CCOCC2)cc1,inactive: -2.69%
9,O=P1(N(CCCl)CCCl)OCCCN1CCCl (centres undefined),inactive: -20.2%
10,O=P1(N(CCCl)CCCl)Nc2ccccc2N1,inactive: -4.51%
11,COc1cc(I)ccc1[As](=O)(O)O,inactive: -7.93%
12,COc1ccc2nc(NP(=O)(c3ccccc3)c3ccccc3)sc2c1,inactive: 3.57%
13,Cc1c2c(nc3ccccc13)SC(C(Cl)Cl)C2 (centres undefined),inactive: 0.81%
14,Cc1cc(=O)[nH]c(N[N+](=O)[O-])n1,inactive: 6.51%
15,O=[N+]([O-])c1cc([N+](=O)[O-])c(-c2ccn[nH]2)s1,inactive: 4.48%
16,CC(C)NC(=O)NP(=O)(Oc1ccccc1)Oc1ccccc1,inactive: -9.6%
17,CCN(CC)C(=S)SC(NC=O)C(Cl)(Cl)Cl (centres undefined),inactive: -9.07%
18,O=C(OC1CN2CCC1CC2)c1cccc2[nH]cnc12 (centres undefined),inactive: 5.08%
19,ClCCSc1nnc(-c2cccnc2)o1,inactive: -6.21%
20,COC(=O)C1(C)COP(=O)(N2CCCCCC2)OC1 (centres undefined),inactive: -19.3%
21,CC(C)c1ccc(OP(=O)(Nc2ccccn2)Oc2ccccc2F)cc1 (centres undefined),inactive: -5.14%
22,CC(Cc1ccc(O)cc1)NCC(O)c1cc(O)cc(O)c1 (centres undefined),inactive: -4.63%
23,[N-]=[N+]=NC1CCCCC1NC(=O)c1cc([N+](=O)[O-])cc([N+](=O)[O-])c1 (centres undefined),inactive: -9.56%
24,Cc1ccc(OP(=O)(Nc2ccc([N+](=O)[O-])cn2)Oc2ccc(C)cc2)cc1,inactive: -4.02%

row,SMILES,inhibition
1,Cc1ccc2nc3c(c(C)c2c1)CC(C(Cl)Cl)S3 (centres undefined),inactive: -10.4%
2,O=[N+]([O-])c1ccc(-c2cc([N+](=O)[O-])c(O)c([N+](=O)[O-])c2)cc1,inactive: -4.81%
3,C[As](=O)(O)c1cccc(C(=O)O)c1,inactive: 2.57%
4,O=[As](O)(c1ccc(O)cc1)c1ccccc1O,inactive: -12.4%
5,O=P(Nc1ccccn1)(c1cccc2ccccc12)c1cccc2ccccc12,inactive: 0.12%
6,Cc1cc(SC(NC=O)C(Cl)(Cl)Cl)ncn1 (centres undefined),inactive: -10.7%
7,O=[N+]([O-])c1ccc(Nc2ccc(Oc3ccc([N+](=O)[O-])cc3[N+](=O)[O-])cc2)c([N+](=O)[O-])c1,inactive: -15.2%
8,CCOC(=O)Nc1cccc([As](=O)(O)O)c1,inactive: 12.3%
9,COP(=O)(OC)N1CC1c1ccccc1 (centres undefined),inactive: 20%
10,Cc1cc(SC(NC(=O)c2ccccc2)C(Cl)(Cl)Cl)nc(C(C)C)n1 (centres undefined),inactive: -6.14%
11,CCOC(=O)Nc1ccc([As](=O)(O)O)c(O)c1,inactive: -16.4%
12,O=C(O)C(O)c1ccc(N(CCCl)CCCl)cc1 (centres undefined),inactive: 11.7%
13,C/C=C1/CC(C)C(C)(O)C(=O)OCC2CCN3CCC(OC1=O)C23 (centres undefined),inactive: -0.9%
14,CC1CCNP(=O)(N(CCCl)CCCl)O1 (centres undefined),inactive: -5.28%
15,CCC(C)N(CC(C)C)C(=S)SC(NC(C)=O)C(Cl)(Cl)Cl (centres undefined),inactive: -6.67%
16,CSc1ccc(Nc2c([N+](=O)[O-])cc([N+](=O)[O-])cc2[N+](=O)[O-])cc1,inactive: 10.3%
17,O=C(OC1CN2CCC1CC2)c1cccc([N+](=O)[O-])c1 (centres undefined),inactive: -7.25%
18,O=C(O)C(=O)c1ccc(N(CCCl)CCCl)cc1,inactive: -5.32%
19,O=C(Nc1ccncc1[N+](=O)[O-])c1ccc([N+](=O)[O-])cc1[N+](=O)[O-],inactive: -3.41%
20,O=C(COc1ccccc1)OC1CN2CCC1CC2 (centres undefined),inactive: -9.45%
21,COC(=O)C1(C)COP(=O)(N2CCCC2)OC1 (centres undefined),inactive: 2.64%
22,COP1(=S)c2c(C)nn(CCC#N)c2N=C(c2ccc(F)cc2)N1C (centres undefined),inactive: -7.26%
